Results published in PMC7066245 (Scientific Reports, 2020).

How the values were obtained:
[1] = tested on: HL60 promyelocytic leukemia cells; experiment: resazurin viability assay, HL60; assay type: cell-based, human; details: read-out: IC50 HL60, 48 h incubation
[2] = tested on: normal peripheral blood-derived mononuclear cells (PBMC); experiment: resazurin viability assay, PBMC; assay type: cell-based; details: read-out: IC50 PBMC, 48 h incubation
[3] = tested on: RPMI8226 myeloma cancer cells; experiment: resazurin viability assay, RPMI8226; assay type: cell-based, human; details: read-out: IC50 RPMI8226, 48 h incubation
THP1 cells = experiment: alkaline comet assay, THP1; assay type: cell-based, human; details: THP1, 48 h, 0.3 μM
RPMI8226 cells = experiment: alkaline comet assay, RPMI8226; assay type: cell-based, human; details: RPMI8226, 48 h, 3 µM
[4] = tested on: THP1 acute monocytic leukemia cells; experiment: resazurin viability assay, THP1; assay type: cell-based, human; details: read-out: IC50 THP1, 48 h incubation

## COC(=O)C(N)Cc1ccc(N(CCCl)CCCl)cc1 (stereo not drawn)
[1]
  IC50: 770 nM
[2]
  IC50: 2390 nM
[3]
  IC50: 1050 nM
THP1 cells
  DNA damage (tail DNA), THP1: ~ 15%
RPMI8226 cells
  DNA damage (tail DNA), RPMI8226: ~ 38%
[4]
  IC50: 320 nM
